Patent US11819483B2, “Combination therapy to treat urea cycle disorders” (Baylor College of Medicine, priority 2017, dated 2023)

- PB AUC0-8 (plasma phenylbutyrate, 0 to 8 h, day 4): 1802.6 µmol/L
- PB Tmax (plasma phenylbutyrate, dose on day 4 after 3-day treatment): 1.5^b h
- PB Tmax (plasma phenylbutyrate, dose on day 4 after 3-day treatment, listed as phenylbutyrate): ~1.5 h
- Phenylbutyrate and PAA Cmax and AUC0-8, NaPB arm relative to MIX arm (plasma, day 4): 2-3 times
- Cmax (read-out: PB Cmax, plasma phenylbutyrate, dose on day 4 after 3-day treatment, healthy adults): 727 µM
Substance: sodium phenylbutyrate [NaPB]

Read-outs that look alike come from different tables or passages of the source. Marks after values point to notes of the source that are not given here.
